{"sequences": {"note": "Amino acid sequences for entries named in this document (tags omitted).", "UniProt O60502, whole entry": "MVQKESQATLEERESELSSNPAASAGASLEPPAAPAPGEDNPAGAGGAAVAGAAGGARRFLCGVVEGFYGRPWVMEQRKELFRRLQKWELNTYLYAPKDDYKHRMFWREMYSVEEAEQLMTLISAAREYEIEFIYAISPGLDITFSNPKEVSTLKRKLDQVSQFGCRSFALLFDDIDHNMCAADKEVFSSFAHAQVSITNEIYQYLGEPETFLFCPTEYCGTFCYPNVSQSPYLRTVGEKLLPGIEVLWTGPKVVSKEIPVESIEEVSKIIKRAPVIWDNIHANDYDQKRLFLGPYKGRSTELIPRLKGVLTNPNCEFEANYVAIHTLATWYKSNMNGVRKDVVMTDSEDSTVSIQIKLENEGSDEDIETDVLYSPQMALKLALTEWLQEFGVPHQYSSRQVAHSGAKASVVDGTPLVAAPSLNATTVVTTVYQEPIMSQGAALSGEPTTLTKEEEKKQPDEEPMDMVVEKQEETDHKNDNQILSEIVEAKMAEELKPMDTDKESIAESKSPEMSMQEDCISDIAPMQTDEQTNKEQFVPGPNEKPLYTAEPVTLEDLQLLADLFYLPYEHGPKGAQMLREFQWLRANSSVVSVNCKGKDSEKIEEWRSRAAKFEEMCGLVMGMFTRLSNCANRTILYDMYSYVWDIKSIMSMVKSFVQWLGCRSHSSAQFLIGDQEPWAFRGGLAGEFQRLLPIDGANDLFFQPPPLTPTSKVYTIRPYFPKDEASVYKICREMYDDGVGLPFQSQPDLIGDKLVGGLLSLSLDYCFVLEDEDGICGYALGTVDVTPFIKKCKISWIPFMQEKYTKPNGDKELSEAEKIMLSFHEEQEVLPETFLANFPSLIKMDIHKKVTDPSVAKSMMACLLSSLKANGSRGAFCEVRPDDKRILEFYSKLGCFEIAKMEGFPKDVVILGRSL"}, "source": "patent US20210300900A1", "about": "“OGA INHIBITOR COMPOUNDS” (Janssen Pharmaceutica NV, priority 2018, published 2021)", "target": "recombinant human Meningioma Expressed Antigen 5 (MGEA5), also referred to as O-GcNAcase (OGA) (Homo sapiens, UniProt O60502)", "assay": "OGA biochemical assay (inhibition of FM-GlcNAc hydrolysis, fluorescence)", "conditions": "FM-GlcNAc substrate", "description": "The assay is based on the inhibition of the hydrolysis of fluorescein mono-β-D-N-Acetyl-Glucosamine (FM-GlcNAc) (Mariappa et al. 2015, Biochem J 470:255) by the recombinant human Meningioma Expressed Antigen 5 (MGEA5), also referred to as O-GcNAcase (OGA). The hydrolysis FM-GlcNAc (Marker Gene technologies, cat #M1485) results in the formation of B-D-N-glucosamineacetate and fluorescein. The fluorescence of the latter can be measured at excitation wavelength 485 nm and emission wavelength 538 nm. An increase in enzyme activity results in an increase in fluorescence signal. Full length OGA enzyme was purchased at OnGene (cat #TP322411). The enzyme was stored in 25 mM Tris.HCl, pH 7.3, 100 mM glycine, 10% glycerol at −20° C. Thiamet G and GlcNAcStatin were tested as reference compounds (Yuzwa et al. 2008 Nature Chemical Biology 4:483; Yuzwa et al. 2012 Nature Chemical Biology 8:393). The assay was performed in 200 mM Citrate/phosphate buffer supplemented with 0.005% Tween-20. […]\n50 nl of a compound dissolved in DMSO was dispensed on Black Proxiplate TM 384 Plus Assay plates (Perkin Elmer, #6008269) and 3 μl fl-OGA enzyme mix added subsequently. […] Fluorescence was quantified in the Thermo Scientific Fluoroskan Ascent or the PerkinElmer EnVision with excitation wavelength 485 nm and emission wavelength 538 nm. […]"}
{"smiles": "COc1cccc(C(C)N2CCC(Cc3ccc(F)nc3)C2)n1", "note": "(single isomer, unassigned)", "values": [{"measurement": "Enzymatic hOGA; pIC50", "result": "<5"}]}
